Measurements reported in patent publication US20250129067A1 (Progentos Therapeutics, Inc., priority 2021, published 2025).

Protein sequences, listed by entry. Tags and fused reporters are not part of them. Residues count along the entry.
UniProt P16234, 24-1089 limits assumed: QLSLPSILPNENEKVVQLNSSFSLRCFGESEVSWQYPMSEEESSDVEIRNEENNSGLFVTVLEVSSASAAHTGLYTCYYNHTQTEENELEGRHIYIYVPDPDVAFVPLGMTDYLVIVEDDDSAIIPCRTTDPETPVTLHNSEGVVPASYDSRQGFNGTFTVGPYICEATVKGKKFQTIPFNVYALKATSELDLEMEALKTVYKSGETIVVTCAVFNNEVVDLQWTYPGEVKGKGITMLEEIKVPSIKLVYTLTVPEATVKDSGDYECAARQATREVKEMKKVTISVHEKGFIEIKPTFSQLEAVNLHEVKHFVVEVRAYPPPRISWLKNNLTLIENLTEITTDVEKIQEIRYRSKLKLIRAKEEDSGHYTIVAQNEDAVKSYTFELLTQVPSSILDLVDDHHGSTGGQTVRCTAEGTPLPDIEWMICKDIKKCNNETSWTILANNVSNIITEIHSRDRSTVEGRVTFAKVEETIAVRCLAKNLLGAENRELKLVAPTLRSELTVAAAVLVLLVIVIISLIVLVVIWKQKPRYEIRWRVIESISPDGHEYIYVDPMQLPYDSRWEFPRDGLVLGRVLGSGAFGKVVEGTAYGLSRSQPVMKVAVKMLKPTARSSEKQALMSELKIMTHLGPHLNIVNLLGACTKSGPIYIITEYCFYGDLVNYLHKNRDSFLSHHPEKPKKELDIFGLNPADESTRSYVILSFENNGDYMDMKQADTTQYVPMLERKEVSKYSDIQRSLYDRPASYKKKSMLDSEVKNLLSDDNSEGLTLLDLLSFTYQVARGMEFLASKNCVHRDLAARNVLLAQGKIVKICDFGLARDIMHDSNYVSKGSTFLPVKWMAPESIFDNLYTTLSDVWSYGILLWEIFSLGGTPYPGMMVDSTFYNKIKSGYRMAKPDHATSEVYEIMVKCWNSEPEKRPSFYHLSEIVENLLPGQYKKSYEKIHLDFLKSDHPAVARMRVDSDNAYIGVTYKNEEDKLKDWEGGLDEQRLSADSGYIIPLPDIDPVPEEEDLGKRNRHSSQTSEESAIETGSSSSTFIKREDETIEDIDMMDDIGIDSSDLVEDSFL

Key:
PDGFRα = PDGFRα (Homo sapiens (Human), UniProt P16234); experiment: PDGFRα kinase enzyme assay (Promega PDGFRα Kinase Enzyme System, ADP-Glo); format: biochemical; details: read-out: IC50 Values on PDGFRα Kinase Inhibition, IC50; 11-point dose response, 10,000 nM to 0.169 nM; 150 uM ATP; BLQ = below limit of quantitation
[1] = system: Oligodendrocyte progenitor cells (OPCs); experiment: In vitro OPC differentiation assay, GPR17 expression (immunocytochemistry); format: cell-based, rat

CC(C)(C)OC(=O)N1CCN(c2cnc3cc(-c4cccnc4)ncn23)CC1
IC50 (PDGFRα): 1440 nM
fold induction [1]: 1.33
